Data taken from patent publication US20240327430A1 (Breakpoint Therapeutics GmbH, priority 2023, published 2024).

Amino acid sequences for entries named in this document (tags omitted). Residues count along the entry.
UniProt O75417, 67-894 limits assumed: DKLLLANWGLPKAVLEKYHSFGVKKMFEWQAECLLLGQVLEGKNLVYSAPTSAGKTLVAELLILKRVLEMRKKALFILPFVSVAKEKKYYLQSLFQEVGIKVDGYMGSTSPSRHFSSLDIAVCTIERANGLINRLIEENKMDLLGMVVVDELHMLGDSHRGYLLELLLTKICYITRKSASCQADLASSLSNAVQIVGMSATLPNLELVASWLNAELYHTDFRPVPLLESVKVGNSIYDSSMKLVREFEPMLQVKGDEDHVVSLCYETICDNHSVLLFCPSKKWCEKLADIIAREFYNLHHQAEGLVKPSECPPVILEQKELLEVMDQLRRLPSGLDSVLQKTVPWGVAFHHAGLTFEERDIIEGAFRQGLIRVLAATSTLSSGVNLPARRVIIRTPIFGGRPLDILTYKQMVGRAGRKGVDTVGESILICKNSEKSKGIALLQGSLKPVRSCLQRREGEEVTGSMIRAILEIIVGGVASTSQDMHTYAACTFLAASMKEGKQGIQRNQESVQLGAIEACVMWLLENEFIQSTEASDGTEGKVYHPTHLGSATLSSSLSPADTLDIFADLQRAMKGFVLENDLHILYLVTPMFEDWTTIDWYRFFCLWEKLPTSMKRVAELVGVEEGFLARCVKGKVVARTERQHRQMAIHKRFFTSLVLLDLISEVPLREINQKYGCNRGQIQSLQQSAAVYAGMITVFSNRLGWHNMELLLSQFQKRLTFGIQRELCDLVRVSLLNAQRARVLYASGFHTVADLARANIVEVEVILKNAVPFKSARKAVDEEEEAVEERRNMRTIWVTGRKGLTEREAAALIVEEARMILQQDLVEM

Target: truncated Polθ protein (Polθ-Hel containing the helicase domain (67-894)) (Homo sapiens (Human), UniProt O75417)
Assay: Polθ ATPase assay (Biological Assay 1, ADP-Glo luminescence)
Conditions: read-out: Polθ ATPase assay IC50; Table B; compounds of Experimental Part B, in vitro
Method: The Polθ ATPase assay was used to evaluate inhibitors of Polθ ATPase activity, in vitro. Experiments were performed using a truncated Polθ protein (Polθ-Hel containing the helicase domain (67-894), ATP and a DNA single strand Oligo (5′-CTGTCCTGCATGATG-3′) in the Polθ assay buffer (20 mM Tis-HCl (pH 8.8), MgCl2 5 mM, tween20 0.01%, NP40 0.01%, BSA 0.01%, DTT 1 mM). 2 μL of assay buffer containing Pole-Hel protein (0.5 nM) and DNA substrate (500 nM) was transferred into assay ready plates, containing 0.04 μL of compounds diluted in DMSO. After a 30 minutes incubation at 23° C. in the dark, the reaction was triggered by adding 2 μL of ATP (60 μM), in assay buffer. After 60 minutes at 23° C., 4 μl of ADP-Glo™ Reagent (Glo 1) was added followed by 40 minutes of incubation, then 8 μl of ADP-Glom kinase Detection Reagent (Glo 2) followed by 60 minutes of incubation at 23° C. Luminescence was then measured using Tecan F200 infinite plate reader. Raw data were analysed using GeneData to generate IC50 values.
The Polθ ATPase assay described in Biological Assay 1 above was used to evaluate inhibitors of Polθ ATPase activity for the compounds described in the Experimental Part B above, in vitro.

COc1ccc(C#N)cc1-c1cc(C)ncc1C(=O)Nc1nc2ccc(N3CCCCC3=O)nc2s1
IC50: < 100 nM
